This data set is described as follows: in vitro. Conditions: human, liver microsomes.

Each structure is given as a SMILES string.

Microsomal CLint data for 1 compound are collected here from PMC7695835, “Pharmacological characterisation of novel adenosine A3 receptor antagonists” (Scientific Reports, 2020).

As usually defined, the microsomal CLint is the rate of metabolic loss divided by the concentration. Read a high microsomal CLint as rapid turnover.

`Cc1nc(C(=N)NOC(=O)c2c(-c3c(Cl)cccc3Cl)noc2C)cs1` [Compound K18, O4-{[3-(2,6-dichlorophenyl)-5-methylisoxazol-4-yl]carbonyl}-2-methyl-1,3-thiazole-4-carbohydroximamide] gave a microsomal CLint at 0.1 μM of 287 µL/min/mg.
